Test results taken from patent US9114107B2, “Compositions for inhibiting virus entry and promoting virolysis, and methods thereof” (priority 2010, dated 2015).

Legend:
HOS.T4.R5 cells = assay: WST-1 cytotoxicity assay; conditions: 48 hours
VSV-G pseudotype virus = format: cell-based, vesicular stomatitis virus
[1] = test system: pseudovirus with VSV-G envelope; format: biochemical, vesicular stomatitis virus

With CCC(C)[C@H](NC(=O)[C@@H](N)CCCNC(=N)N)C(=O)N[C@@H](CC(N)=O)C(=O)N[C@@H](CC(N)=O)C(=O)N[C@H](C(=O)N1CC(n2cc([C]34[CH]5[CH]6[CH]7[CH]3[Fe]6754389%10[CH]4[CH]3[CH]8[CH]9[CH]4%10)nn2)C[C@H]1C(=O)N[C@@H](Cc1c[nH]c2ccccc12)C(=O)N[C@@H](CO)C(=O)N[C@@H](CCC(=O)O)C(=O)N[C@@H](C)C(=O)N[C@@H](CCSC)C(=O)N[C@@H](CCSC)C(=O)NCCC(=O)N[C@@H](CCC(N)=O)C(=O)NCCC(=O)N[C@@H](CS)C(N)=O)C(C)CC (stereo partly drawn) [KR13, RINNIXWSEAMMβAQβAC-NH2] the “cytotoxicity, WST-1” value (HOS.T4.R5 cells) was “No significant cytotoxicity; also recorded: no statistically significant differences measured”, the “inhibition of cell infection by control VSV-G pseudotype virus” value (VSV-G pseudotype virus) was “lack of inhibition; also recorded: no statistically significant difference in the percentage infected” and the “p24 release from VSV-G pseudotyped virus” value [1] was “did not show any p24 leakage; also recorded: no effect”.

“Also recorded” adds a separate entry of the source.
